Legend:
[1] = target: T1, cat-CHD1L (Homo sapiens, UniProt Q86WJ1); assay: CHD1L ATPase assay measured by ADP-Glo; assay type: biochemical
T1 construct: made in house; host or cells: Rosetta 2 (DE3) pLysS cells (E. coli)
T1 sequence (Q86WJ1 16-619): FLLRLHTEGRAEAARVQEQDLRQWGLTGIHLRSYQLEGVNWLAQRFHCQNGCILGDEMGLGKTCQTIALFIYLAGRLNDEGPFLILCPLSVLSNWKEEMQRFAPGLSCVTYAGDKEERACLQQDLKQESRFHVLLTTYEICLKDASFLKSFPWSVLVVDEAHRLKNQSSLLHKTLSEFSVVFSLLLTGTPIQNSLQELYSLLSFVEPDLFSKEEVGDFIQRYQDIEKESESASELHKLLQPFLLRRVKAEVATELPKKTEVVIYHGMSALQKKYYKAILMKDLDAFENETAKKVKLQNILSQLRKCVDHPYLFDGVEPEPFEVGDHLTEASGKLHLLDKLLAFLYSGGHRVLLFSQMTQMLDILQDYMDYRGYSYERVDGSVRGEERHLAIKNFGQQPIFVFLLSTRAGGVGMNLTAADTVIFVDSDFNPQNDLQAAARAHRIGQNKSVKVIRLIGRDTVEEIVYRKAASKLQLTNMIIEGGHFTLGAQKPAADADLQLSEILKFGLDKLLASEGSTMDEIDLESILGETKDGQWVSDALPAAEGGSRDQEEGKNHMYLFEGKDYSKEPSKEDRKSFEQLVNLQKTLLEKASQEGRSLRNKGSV

[2] = target: cat-CHD1L-K272A (Homo sapiens, UniProt Q86WJ1, K272A); settings: Lys-to-Ala (K272A) mutation, ATPase function preserved
[3] = target: T2, CHD1L (Homo sapiens, UniProt Q86WJ1); assay: CHD1L trapping (in situ subcellular fractionation, immunofluorescence); assay type: cell-based; settings: single agent; for CHD1L trapping relative to the baseline (doxorubicin control): 24 hours (Example 13)
T2 sequence (Q86WJ1 1-897): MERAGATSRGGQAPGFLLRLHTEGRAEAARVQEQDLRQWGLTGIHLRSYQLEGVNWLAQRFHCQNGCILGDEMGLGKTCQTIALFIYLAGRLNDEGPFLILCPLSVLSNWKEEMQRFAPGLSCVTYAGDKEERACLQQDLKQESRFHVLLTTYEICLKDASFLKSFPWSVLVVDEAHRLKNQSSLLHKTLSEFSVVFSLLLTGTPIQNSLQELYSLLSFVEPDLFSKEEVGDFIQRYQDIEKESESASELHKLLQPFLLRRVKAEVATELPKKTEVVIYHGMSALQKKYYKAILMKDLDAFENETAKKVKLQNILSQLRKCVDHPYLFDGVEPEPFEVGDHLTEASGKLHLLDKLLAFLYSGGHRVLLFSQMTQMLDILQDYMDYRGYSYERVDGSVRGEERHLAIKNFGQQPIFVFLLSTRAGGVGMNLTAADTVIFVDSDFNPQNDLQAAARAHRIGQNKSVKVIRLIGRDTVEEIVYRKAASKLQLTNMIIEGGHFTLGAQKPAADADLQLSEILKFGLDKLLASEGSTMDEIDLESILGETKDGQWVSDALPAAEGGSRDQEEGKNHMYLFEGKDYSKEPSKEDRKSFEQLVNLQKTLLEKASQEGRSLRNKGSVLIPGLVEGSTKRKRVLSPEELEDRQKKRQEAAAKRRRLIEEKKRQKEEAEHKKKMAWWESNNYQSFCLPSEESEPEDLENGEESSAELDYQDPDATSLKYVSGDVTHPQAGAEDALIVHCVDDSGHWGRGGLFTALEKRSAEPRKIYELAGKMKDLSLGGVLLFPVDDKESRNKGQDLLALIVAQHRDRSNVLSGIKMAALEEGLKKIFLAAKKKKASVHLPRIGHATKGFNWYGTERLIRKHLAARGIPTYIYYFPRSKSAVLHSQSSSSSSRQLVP
From the text: Other studies on the role of CHD1L used cell lines with knockdown or knockouts of the gene encoding for CHD1L and have never been able to study the result of its enzymatic inhibition.

[4] = Pharmacokinetics in mice; settings: mouse, in vivo, po

SMILES | inhibition of CHD1L ATPase activity [1] | inhibitory activity on K272A mutant [2] | CHD1L trapping relative to the baseline (doxorubicin control) [3] | CHD1L trapping onto chromatin/nucleosomes ([3]; SUM149PT + 0.01% MMS 4 h, BC and CRC cells) | half-life [4] [h]
Cc1cc(Nc2ccc(NC(=O)Cc3cc(Br)cs3)cc2)nc(N2CCCC2)n1 [Compound 6.11, 2-(4-bromothiophen-2-yl)-N-(4-((6-methyl-2-(pyrrolidin-1-yl)pyrimidin-4-yl)amino)phenyl)acetamide] | potent nM dose-dependent inhibition | abolishes Compound 6.11's inhibitory activity | about 3 fold | dose-dependent increase in CHD1L trapping | 8
Cc1cc(Nc2ccc(NC(=O)Cc3c[nH]c4cc(Cl)ccc34)cc2)nc(N2CCCC2)n1 [Compound 7, 2-(6-chloro-1H-indol-3-yl)-N-(4-((6-methyl-2-(pyrrolidin-1-yl)pyrimidin-4-yl)amino)phenyl)acetamide] |  |  | about 5 fold |  | 

— US20260240844A1, “INHIBITORS OF CHD1L AND USES THEREOF” (The Regents of the University of Colorado, a body corporate, priority 2023, published 2026)
